Data published in ChEMBL document CHEMBL1132350, “Quantitative structure-activity relationship modeling of dopamine D(1) antagonists using comparative molecular field analysis, genetic algorithms-partial least-squares, and K nearest neighbor methods” (J Med Chem, 1999).

By UniProt entry, the sequences of proteins in these tests, tags left out.
UniProt P18901, whole entry: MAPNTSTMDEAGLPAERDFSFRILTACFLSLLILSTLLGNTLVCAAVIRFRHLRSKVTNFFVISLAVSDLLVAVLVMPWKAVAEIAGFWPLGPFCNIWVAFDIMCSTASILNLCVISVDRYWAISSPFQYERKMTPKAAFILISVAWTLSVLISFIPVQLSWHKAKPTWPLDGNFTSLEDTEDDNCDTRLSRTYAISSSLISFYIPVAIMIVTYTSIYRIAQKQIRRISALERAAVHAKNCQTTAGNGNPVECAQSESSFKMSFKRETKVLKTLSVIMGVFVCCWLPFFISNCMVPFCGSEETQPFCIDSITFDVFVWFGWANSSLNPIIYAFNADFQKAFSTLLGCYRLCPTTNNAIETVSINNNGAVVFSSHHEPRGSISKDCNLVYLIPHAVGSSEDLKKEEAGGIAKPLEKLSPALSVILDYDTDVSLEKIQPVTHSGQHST

Target: D(1A) dopamine receptor (Rattus norvegicus) (UniProt P18901)
Settings: Striatum

Q: `Oc1cc2c(cc1Cl)CNCC2c1ccccc1` (configuration not stated) was tested. Which -Log K0.5 did it give?
A: 6.55

Q: With `CN1Cc2cc(Cl)c(O)cc2C(c2ccccc2)C1` (configuration not stated) as the molecule, how does the -Log K0.5 read?
A: 7.06
